# According to publication PMC4839290 (Journal of medicinal chemistry, 2015):
# Amino acid sequences for entries named in this document (tags omitted). Residues count along the entry.
# UniProt Q14832, 23-879: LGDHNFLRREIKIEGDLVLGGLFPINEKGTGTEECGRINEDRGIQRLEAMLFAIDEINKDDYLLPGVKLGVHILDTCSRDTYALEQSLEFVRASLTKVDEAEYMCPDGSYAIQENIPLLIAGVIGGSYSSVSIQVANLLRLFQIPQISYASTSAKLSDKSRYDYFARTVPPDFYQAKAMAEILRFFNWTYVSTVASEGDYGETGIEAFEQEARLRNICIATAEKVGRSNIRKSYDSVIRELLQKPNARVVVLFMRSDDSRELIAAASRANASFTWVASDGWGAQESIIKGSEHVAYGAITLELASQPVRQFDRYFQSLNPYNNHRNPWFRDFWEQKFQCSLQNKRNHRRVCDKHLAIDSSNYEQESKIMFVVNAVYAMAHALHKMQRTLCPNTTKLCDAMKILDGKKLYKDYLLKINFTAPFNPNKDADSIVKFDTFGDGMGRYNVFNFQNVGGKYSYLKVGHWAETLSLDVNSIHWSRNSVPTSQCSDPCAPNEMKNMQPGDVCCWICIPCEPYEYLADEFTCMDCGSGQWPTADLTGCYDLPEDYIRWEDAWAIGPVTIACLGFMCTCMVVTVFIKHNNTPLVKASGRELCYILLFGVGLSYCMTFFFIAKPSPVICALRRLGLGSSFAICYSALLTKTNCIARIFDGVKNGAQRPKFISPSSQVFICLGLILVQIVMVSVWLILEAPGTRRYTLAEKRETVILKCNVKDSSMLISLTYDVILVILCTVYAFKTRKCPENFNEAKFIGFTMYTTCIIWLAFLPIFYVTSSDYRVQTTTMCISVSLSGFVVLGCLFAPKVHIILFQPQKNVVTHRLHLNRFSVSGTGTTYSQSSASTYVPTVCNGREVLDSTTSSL
# UniProt P41594, 21-1212: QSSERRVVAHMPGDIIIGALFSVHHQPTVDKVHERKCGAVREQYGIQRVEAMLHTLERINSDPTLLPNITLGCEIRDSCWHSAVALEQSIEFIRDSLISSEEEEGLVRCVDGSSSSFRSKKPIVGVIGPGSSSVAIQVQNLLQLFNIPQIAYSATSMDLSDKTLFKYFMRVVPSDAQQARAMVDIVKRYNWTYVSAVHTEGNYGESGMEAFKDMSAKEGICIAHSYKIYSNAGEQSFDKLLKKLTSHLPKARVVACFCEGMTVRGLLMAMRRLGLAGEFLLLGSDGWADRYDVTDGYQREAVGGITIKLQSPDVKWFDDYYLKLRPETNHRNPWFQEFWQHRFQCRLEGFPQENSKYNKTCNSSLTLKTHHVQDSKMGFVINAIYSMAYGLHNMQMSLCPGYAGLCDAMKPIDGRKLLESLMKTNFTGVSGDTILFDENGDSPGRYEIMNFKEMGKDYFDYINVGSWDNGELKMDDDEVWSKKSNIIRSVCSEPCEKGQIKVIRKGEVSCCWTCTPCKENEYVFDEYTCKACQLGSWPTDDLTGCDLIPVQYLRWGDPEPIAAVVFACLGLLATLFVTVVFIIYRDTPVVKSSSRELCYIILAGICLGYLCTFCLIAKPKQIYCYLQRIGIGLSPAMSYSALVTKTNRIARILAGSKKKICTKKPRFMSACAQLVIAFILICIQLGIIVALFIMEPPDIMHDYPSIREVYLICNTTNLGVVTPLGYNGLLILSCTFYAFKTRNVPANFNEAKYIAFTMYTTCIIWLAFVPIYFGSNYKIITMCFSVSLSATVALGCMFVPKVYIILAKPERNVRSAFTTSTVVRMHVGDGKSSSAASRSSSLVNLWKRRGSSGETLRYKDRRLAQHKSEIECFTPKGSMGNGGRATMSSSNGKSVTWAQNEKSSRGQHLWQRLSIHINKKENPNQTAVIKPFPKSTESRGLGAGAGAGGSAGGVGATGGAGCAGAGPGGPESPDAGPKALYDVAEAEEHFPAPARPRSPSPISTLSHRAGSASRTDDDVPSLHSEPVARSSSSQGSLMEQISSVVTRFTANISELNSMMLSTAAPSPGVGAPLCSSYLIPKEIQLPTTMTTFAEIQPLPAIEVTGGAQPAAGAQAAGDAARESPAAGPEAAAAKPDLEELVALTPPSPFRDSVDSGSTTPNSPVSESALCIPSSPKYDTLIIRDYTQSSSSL
# UniProt O15303, 25-877: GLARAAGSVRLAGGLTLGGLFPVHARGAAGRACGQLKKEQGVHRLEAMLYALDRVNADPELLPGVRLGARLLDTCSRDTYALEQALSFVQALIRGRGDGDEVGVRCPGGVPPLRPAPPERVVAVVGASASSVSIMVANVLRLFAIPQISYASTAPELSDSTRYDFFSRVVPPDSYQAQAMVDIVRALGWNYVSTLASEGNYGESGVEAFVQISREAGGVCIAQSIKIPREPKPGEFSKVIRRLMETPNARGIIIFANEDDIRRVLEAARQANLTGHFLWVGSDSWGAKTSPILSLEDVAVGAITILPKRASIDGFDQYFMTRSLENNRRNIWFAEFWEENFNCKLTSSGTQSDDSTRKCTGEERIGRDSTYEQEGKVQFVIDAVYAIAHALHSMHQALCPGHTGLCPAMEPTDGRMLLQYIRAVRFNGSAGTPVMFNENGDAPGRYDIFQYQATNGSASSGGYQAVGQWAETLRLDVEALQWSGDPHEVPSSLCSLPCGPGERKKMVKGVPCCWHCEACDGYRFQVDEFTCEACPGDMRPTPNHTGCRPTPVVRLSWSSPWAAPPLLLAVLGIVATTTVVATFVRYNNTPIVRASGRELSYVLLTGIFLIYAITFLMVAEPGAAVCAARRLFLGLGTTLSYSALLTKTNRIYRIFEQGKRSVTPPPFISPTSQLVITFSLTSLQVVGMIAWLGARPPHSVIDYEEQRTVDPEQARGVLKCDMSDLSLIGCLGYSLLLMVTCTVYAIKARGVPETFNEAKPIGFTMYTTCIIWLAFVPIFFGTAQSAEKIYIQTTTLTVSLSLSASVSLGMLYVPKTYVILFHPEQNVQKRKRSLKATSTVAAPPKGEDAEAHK
# UniProt Q14831, 35-915: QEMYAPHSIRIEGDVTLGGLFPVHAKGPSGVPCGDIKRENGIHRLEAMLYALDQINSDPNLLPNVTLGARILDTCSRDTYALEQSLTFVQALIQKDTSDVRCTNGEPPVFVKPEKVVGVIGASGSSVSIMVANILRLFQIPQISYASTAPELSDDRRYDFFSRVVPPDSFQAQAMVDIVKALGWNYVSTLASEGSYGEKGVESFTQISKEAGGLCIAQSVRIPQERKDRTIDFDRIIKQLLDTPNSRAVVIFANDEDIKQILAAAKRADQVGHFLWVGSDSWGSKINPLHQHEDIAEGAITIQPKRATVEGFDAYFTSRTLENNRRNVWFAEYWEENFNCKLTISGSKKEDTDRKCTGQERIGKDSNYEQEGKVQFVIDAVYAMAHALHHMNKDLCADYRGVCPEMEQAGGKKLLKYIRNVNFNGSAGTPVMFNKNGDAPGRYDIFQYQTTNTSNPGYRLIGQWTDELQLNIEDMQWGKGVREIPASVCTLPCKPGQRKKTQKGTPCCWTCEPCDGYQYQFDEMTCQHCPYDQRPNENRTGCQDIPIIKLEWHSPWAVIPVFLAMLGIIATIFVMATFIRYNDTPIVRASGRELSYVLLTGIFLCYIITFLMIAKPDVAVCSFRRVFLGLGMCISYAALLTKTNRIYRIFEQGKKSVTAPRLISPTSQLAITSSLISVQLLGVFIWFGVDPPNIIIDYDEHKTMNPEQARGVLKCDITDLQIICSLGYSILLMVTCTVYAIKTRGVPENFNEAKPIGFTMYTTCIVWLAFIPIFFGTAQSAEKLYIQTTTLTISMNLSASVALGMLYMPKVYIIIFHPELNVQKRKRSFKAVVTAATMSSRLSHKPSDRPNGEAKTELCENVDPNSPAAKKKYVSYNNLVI
# UniProt O00222, 34-908: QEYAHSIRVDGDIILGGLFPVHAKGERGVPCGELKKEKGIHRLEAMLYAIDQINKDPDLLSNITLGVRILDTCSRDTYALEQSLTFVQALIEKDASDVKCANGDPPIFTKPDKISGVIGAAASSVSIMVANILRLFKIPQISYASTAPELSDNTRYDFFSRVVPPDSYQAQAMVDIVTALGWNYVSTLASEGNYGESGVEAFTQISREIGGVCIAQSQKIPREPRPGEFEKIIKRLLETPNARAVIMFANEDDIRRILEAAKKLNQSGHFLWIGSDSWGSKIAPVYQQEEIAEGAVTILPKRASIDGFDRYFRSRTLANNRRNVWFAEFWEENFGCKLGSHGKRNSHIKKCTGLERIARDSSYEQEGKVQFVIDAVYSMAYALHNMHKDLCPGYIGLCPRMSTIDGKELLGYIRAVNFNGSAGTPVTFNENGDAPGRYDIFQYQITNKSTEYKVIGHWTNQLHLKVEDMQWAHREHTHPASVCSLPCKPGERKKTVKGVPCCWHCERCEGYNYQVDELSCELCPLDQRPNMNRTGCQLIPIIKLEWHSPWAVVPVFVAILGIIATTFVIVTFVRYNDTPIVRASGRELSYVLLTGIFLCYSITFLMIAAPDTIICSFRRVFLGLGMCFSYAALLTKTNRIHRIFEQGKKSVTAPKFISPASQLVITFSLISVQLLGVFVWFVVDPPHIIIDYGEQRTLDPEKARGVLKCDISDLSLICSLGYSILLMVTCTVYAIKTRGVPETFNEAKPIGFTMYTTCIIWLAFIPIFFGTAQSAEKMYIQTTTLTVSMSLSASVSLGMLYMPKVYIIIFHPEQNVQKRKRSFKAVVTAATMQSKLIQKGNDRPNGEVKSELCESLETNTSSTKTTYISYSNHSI
# UniProt Q14833, 33-912: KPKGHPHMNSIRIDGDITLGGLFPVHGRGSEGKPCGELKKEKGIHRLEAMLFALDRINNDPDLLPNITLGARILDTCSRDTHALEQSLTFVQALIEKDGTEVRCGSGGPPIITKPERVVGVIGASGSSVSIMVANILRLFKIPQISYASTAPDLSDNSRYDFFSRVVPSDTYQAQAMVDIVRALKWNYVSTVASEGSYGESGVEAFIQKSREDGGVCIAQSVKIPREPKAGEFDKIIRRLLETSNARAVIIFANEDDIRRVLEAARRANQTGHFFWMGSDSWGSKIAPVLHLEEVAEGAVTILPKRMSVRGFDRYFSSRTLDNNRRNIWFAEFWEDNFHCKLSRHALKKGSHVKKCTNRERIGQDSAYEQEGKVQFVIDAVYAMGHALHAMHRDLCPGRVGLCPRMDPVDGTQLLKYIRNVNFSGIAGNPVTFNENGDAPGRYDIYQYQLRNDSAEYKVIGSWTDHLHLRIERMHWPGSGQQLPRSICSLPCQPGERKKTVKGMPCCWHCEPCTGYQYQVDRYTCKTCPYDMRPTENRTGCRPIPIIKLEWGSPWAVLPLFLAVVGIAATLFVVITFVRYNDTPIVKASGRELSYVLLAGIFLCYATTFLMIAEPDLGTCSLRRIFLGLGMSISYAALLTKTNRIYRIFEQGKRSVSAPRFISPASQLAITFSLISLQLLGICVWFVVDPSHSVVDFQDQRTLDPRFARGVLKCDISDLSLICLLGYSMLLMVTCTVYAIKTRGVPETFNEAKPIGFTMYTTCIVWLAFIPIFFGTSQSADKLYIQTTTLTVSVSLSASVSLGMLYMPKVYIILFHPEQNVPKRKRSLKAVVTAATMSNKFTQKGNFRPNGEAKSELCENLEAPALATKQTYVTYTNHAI
# Legend:
# mGlu2 = assay: Standard fold-shift selectivity assay; format: cell-based; conditions: 10 μM compound
# mGlu3 = mGlu3 (Homo sapiens, UniProt Q14832); assay: Standard fold-shift selectivity assay; format: cell-based; conditions: 10 μM compound
# mGlu5 = mGlu5 (Homo sapiens, UniProt P41594); assay: Standard fold-shift selectivity assay; format: cell-based; conditions: 10 μM compound
# mGlu6 = mGlu6 (Homo sapiens, UniProt O15303); assay: Standard fold-shift selectivity assay; format: cell-based; conditions: 10 μM compound
# mGlu7 = mGlu7 (Homo sapiens, UniProt Q14831); assay: Standard fold-shift selectivity assay; format: cell-based; conditions: 10 μM compound
# mGlu8 = mGlu8 (Homo sapiens, UniProt O00222); assay: Standard fold-shift selectivity assay; format: cell-based; conditions: 10 μM compound
# [1] = In vitro intrinsic and hepatic clearance, human; format: in vitro ADME
# hmGlu4 = hmGlu4 (Homo sapiens, UniProt Q14833); assay: Calcium mobilization assay, mGlu4 PAM activity; format: cell-based; conditions: hmGlu4 EC50 over hmGlu1 EC50
fold shift of glutamate CRC at mGlu3 (mGlu3) [fold],fold shift of glutamate CRC at mGlu5 (mGlu5) [fold],fold shift of glutamate CRC at mGlu6 (mGlu6) [fold],fold shift of glutamate CRC at mGlu7 (mGlu7) [fold],fold shift of glutamate CRC at mGlu8 (mGlu8) [fold],human CLHEP [1] [mL/min/kg],fold selective vs mGlu4 (hmGlu4) [fold],SMILES,fold shift of glutamate CRC at mGlu2 (mGlu2) [fold]
< 2,< 2,< 2,< 2,< 2,2.54,,"Cc1ccoc1C(=O)Nc1ccc(N2C(=O)c3ccc(Cl)cc3C2=O)c(Cl)c1 [17d, N-(3-Chloro-4-(5-chloro-1,3-dioxoisoindolin-2-yl)phenyl)-3-methylfuran-2-carboxamide]",< 2
< 2,< 2,< 2,< 2,< 2,18.6,>100,"Cc1ccoc1C(=O)Nc1ccc(N2C(=O)c3ccncc3C2=O)c(Cl)c1 [17g, N-(3-Chloro-4-(1,3-dioxo-1,3-dihydro-2H-pyrrolo[3,4-c]-pyridin-2-yl)phenyl)-3-methylfuran-2-carboxamide]",< 2
,,,,,19.4,,"O=C(Nc1nc(C(F)(F)F)co1)C1c2ccccc2Oc2ccccc21 [compound 5, reference compound]",
,,,,,9.46,,"O=C(Nc1ccc(N2C(=O)c3cccc(Cl)c3C2=O)c(Cl)c1)c1ncccc1Cl [compound 8, reference compound]",
